Measured affinities in a library of Ab-14 light chain variants

Antigen: PDVDLGDISGINAS, a 14-residue peptide of the SARS-CoV-2 spike HR2 region.

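The starting antibody came from a phage panning campaign against this peptide. Variants in AAYL50 differ from the parent at up to three CDR positions; double and triple changes were sampled at random. AlphaSeq pools MATa yeast showing the antibodies with MATalpha yeast showing the peptide. Binding brings cells together so that they mate, and sequencing counts the barcode pairs among the diploids. Read counts were normalised to the haploid input and turned into Kd by a linear fit to BCL2-family pairs of known affinity, for each replicate. Each pool was mated in three replicate cultures.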

Parent: Ab-14, a human scFv built as VH, a 15-residue (Gly4Ser)3 linker, VL. Only the CDRs of the light chain vary.
VH: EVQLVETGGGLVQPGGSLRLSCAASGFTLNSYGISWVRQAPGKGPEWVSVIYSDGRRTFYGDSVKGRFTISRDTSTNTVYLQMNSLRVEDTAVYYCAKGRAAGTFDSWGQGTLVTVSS
VL: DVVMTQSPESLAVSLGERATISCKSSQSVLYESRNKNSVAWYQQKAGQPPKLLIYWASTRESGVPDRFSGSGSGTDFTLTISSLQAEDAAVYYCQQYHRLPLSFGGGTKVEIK

Each variant is given by its three light chain CDRs, as the data file delimits them; those of the parent are KSSQSVLYESRNKNSVA, WASTRES, QQYHRLPLS.
Scale: log10 of Kd in nM, estimated from mating counts; low values are strong binders.
Averages over replicates are reported, and they cover detected replicates only.
An entry "ND" has no value in the source: the pair was not observed among the diploids in that replicate. This suggests poor binding but is not conclusive.
As a blank, each scFv also met three strains without target: over library AAYL50, 18% of these pairings were detected, typically at 4.19 and seldom below 2.99. For each scFv, signals with the empty controls are counted beside the result, with their mean in brackets.

| CDR-L1 | CDR-L2 | CDR-L3 | replicates, log10 nM | mean log10 Kd (nM) | control signals |
|---|---|---|---|---|---|
| KSSQSVLYESRNKNSVA | WAKTRES | QQYHRLPHS | ND ND ND | ND | 0/9 |
| KSSQSVLYESLNKNSVA | WARMRES | QQYHRLPLS | 0.61 0.84 0.99 | 0.81 | 1/9 (3.65) |
| KSSQSVLYESRNKYSVA | WDSTRES | QQYHRLPHS | 3.80 3.35 3.91 | 3.69 | 1/9 (5.38) |
| KSSQSVMYESRGKNSVA | WASTSES | QQYHRLPLS | 3.48 2.61 5.60 | 3.90 | 0/9 |
| FSSQSVLYESRNKNIVA | WASTRES | QYYHRLPLS | ND 5.39 4.87 | 5.13 | 4/9 (4.48) |
| KSSQSELYESRNKNSVA | WASTRES | QQEHRLPGS | ND ND ND | ND | 0/9 |
| KSSQSVLYICRNQNSVA | WASTRES | QQYHRLPLS | ND ND ND | ND | 2/9 (4.24) |
| KSSQSVLYESRNNASRA | WASTRES | QQYHRLPLS | 4.16 5.67 6.85 | 5.56 | 6/9 (4.28) |
| KSSQSVNYESRNKNSVA | WASRRES | QQYQRLPLS | ND ND ND | ND | 0/9 |
| KSSQSVLYESRNKNSGA | WASTREH | QQHHRLPLS | 5.14 3.52 ND | 4.33 | 3/9 (3.63) |
| KSSQSVMYEERNKNSVA | WASTRES | QQYHALPLS | ND ND ND | ND | 0/9 |
| KSSQSVLYESRNENSVA | WASTRES | QQGHTLPLS | 0.74 1.06 0.92 | 0.91 | 1/9 (3.28) |
| KSSQSVLYESRGKNSVA | WASTREC | HQYHRLPLS | ND ND ND | ND | 2/9 (4.32) |
| KSSQSVVFESRNKNSVA | WASTRKS | QQYHRLPLS | 3.83 3.71 4.01 | 3.85 | 0/9 |
| KSSQSVLYESRRKGSVA | WASTRES | QQYHRKPLS | 3.24 2.52 1.83 | 2.53 | 1/9 (2.81) |
| KSSQSVQYEQRNKNSVA | WASRRES | QQYHRLPLS | 1.83 1.88 2.29 | 2.00 | 3/9 (4.94) |
| KSSQSPLYESRNKNSVA | WAKTRES | QQYHRLPDS | ND ND ND | ND | 0/9 |
| TSSQSVAYESRNKNSVA | WASTWES | QQYHRLPLS | ND ND ND | ND | 1/9 (3.76) |
| KSSQSVLPESRNKNSVA | WASTREH | QQYHRLPLS | 1.57 1.41 1.76 | 1.58 | 0/9 |
| KSSQSVLYESRNKNSVA | WASTRER | QQYHRLPLS | 0.88 0.96 0.97 | 0.93 | 2/9 (4.03) |
| KSSQSVLYESENKNSVA | WASTKES | QQYHREPLS | ND ND 4.25 | 4.25 | 0/9 |
| KSSQSVLYTSRNKNSVA | WASTRES | FQYCRLPLS | ND ND 5.11 | 5.11 | 4/9 (4.28) |
| KSSQSVLYESRNKNSVA | WALTHEH | QQYHRLPLS | ND ND ND | ND | 1/9 (4.77) |
| KSSQSVYYESRNMNSVN | WASTRES | QQYHRLPLS | ND ND ND | ND | 3/9 (3.72) |
| KPVQSVLYESRNKNSVA | WASTRRS | QQYHRLPLS | ND ND 2.82 | 2.82 | 0/9 |
| KSSQSVLYESRNKNSVA | DASTRES | DQYHRLPLS | ND ND ND | ND | 0/9 |
| KSEQSVLYESRNKNKVA | WASPRES | QQYHRLPLS | ND ND 3.92 | 3.92 | 2/9 (4.03) |
| KSSQSMLYESRNKNSVA | WAFTRES | QQYHRLPLS | 3.22 ND ND | 3.22 | 1/9 (2.48) |
| KSSQSVLYESRNKNSVA | WASWRES | QQYHRLPLV | ND 2.70 3.66 | 3.18 | 1/9 (4.95) |
| KKSQSVLYTSRNKNSVA | WASTRRS | QQYHRLPLS | 6.47 4.71 5.97 | 5.72 | 6/9 (4.22) |
| FSSQSVLNESRNKNSVA | WASTRES | QYYHRLPLS | 1.66 1.92 1.50 | 1.69 | 4/9 (3.73) |
| KSSQSVLYESRNKNSVS | WASTRMS | QQYRRLPLS | 2.72 ND ND | 2.72 | 0/9 |
| KSSQSVLYESRNKNSVA | WASTREM | AIYHRLPLS | 4.14 ND ND | 4.14 | 0/9 |
| KSSQSWLYESRNKNSVA | WASTRES | QRYHRLPLS | 1.63 1.48 1.99 | 1.70 | 0/9 |
| KSSQSVLYECRNKNSVA | WASTRES | QQYHRLPLS | ND ND ND | ND | 0/9 |
| KSSQSVLRESRNKNSVA | WASTRGS | QQYHRLPLP | ND ND ND | ND | 3/9 (3.29) |
| KSSQLVLTESDNKNSVA | WASTRES | QQYHRLPLS | 1.31 1.35 1.41 | 1.36 | 5/9 (4.11) |
| KSSQSVSYESRNKNSVA | WASTLDS | QQYHRLPLS | 1.60 1.44 1.24 | 1.43 | 0/9 |
| KSPQSVLYESRNKNSYA | WASTRQS | QQYHRLPLS | ND ND ND | ND | 1/9 (2.79) |
| KSSQSVLYESRNKNSVA | WADTRET | QQYHRLCLS | ND ND ND | ND | 0/9 |
| KSSQLVLYESKNKNSVA | WASTRES | QQYHRLPLQ | 0.93 1.40 1.44 | 1.26 | 2/9 (5.18) |
| KSSQSVPYQSRNKNSVA | WESTRES | QQYHRLPLS | 2.43 2.60 2.89 | 2.64 | 1/9 (4.80) |
| TSSQSVLYESRNKNSVA | WASTRES | QQGHRLPLS | 1.93 1.84 1.73 | 1.83 | 4/9 (4.31) |
| KSSQSVLYESRNKNSVA | WASTGES | QQYHRGPLF | ND ND ND | ND | 1/9 (3.14) |
| KSSQSVLYQSRNKNSVA | WASTRES | QHYRRLPLS | ND ND ND | ND | 1/9 (2.90) |

From the list, the first 4 with no signal in any replicate:

| CDR-L1 | CDR-L2 | CDR-L3 | replicates, log10 nM | mean log10 Kd (nM) | control signals |
|---|---|---|---|---|---|
| KSSQSVLYESRNKNSVA | WAKTRES | QQYHRLPHS | ND ND ND | ND | 0/9 |
| KSSQSELYESRNKNSVA | WASTRES | QQEHRLPGS | ND ND ND | ND | 0/9 |
| KSSQSVLYICRNQNSVA | WASTRES | QQYHRLPLS | ND ND ND | ND | 2/9 (4.24) |
| KSSQSVNYESRNKNSVA | WASRRES | QQYQRLPLS | ND ND ND | ND | 0/9 |

The measurements come from Engelhart et al. 2022 (doi:10.1038/s41597-022-01779-4) through the FLAb antibody collection.